Laboratory results taken from patent publication US5844099, “Cytokine antagonists” (Regeneron Pharmaceuticals, Inc., dated 1998).

Target: recombinant human IL-6 (human) (UniProt P05231)

| IL-6-dependent proliferation of XG-1 cells (MTT assay) (fold molar excess over IL-6) | IL-6-dependent proliferation of XG-1 cells (fold molar excess over IL-6) | Substance |
| --- | --- | --- |
| 10 | – | gp130-Cγ1●IL-6Rα-κ (from UniProt P40189) (Fc fusion) |
| – | 1000 | gp130-Fc●CNTFRα-Fc ligand trap (from UniProt P40189) (Fc fusion) |
